Test results published in ChEMBL document CHEMBL1143652, “Joys of molecules. 2. Endeavors in chemical biology and medicinal chemistry” (J Med Chem, 2005).

Target: Protein kinase C (PKC)
Experiment: Inhibitory constant against protein kinase C
Type: protein assay

Ki: 5.3 nM
Compound: O=C(N[C@@H]1CNCCC[C@H]1OC(=O)c1cc(O)c(C(=O)c2c(O)cccc2C(=O)O)c(O)c1)c1ccc(O)cc1 [BALANOL]
